Experiment: Metabolite identification in rat serum by UPLC-LTQ-Orbitrap-MS2 after HCT extract; further: key: +: detected; —: undetected
Format: in vivo, SD rats
Conditions: 50H group (600 mg/kg BW 50 °C hot-air dried HCT extract)
Protocol: The chromatographic separation was performed on an ACQUITY UPLC BEH C18 column (2.1 × 100 mm, 1.7 μm) maintained at 25 °C. […] The mobile phase flow rate was maintained at 300 μL/min with a 2 μL injection volume.
Mass spectrometric detection was carried out using an LTQ-Orbitrap system equipped with a HESI-II source operating in both positive and negative ionization modes. Full scan MS data were acquired over m/z 50–2000 with mass resolution set to 30,000 (at m/z 400). For structural elucidation, data-dependent MS/MS scans were triggered using a normalized collision energy of 45 eV in the CID cell. The diode array detector was simultaneously monitored at 280 nm and 320 nm. All instrumental operations and data acquisition were controlled by Xcalibur v2.0 software (Thermo Scientific).
The animal study protocol was approved by the Animal Ethics Committee of Jiangxi University of Chinese Medicine (Approval No. TEMPOR20230112). A total of 24 female SD rats (200 ± 20 g) were obtained from the Laboratory Animal Center of Jiangxi University of Chinese Medicine (Nanchang, China). […] The identification and quantification of metabolites in rat samples were performed using analytical methodologies consistent with those employed in our previous investigations.

- Metabolite detected in Serum, 50H: +
SMILES: O=C(O)CC(=O)O [M28, malonic acid]
